Read-outs that look alike come from different tables or passages of the source.
Tests used:
rat α3β4 nAChR [1] = target: T1, rat α3β4 nAChR (Rattus norvegicus, UniProt P04757+P12392); experiment: Competition binding with [^125I]AT-1012 as radioligand, HEK cell membranes
rat α3β4 nAChR [2] = target: T1, rat α3β4 nAChR; experiment: Competition binding with [^3H]epibatidine as radioligand, HEK cell membranes
human α3β4α5 nAChR [3] = target: T2, human α3β4α5 nAChR (Homo sapiens, UniProt P30926+P32297); experiment: Competition binding with [^125I]AT-1012 as radioligand, HEK cell membranes; settings: read-out: Binding affinity (Ki) at human α3β4α5 nAChR; radioligand [^125I]AT-1012; average ± SD
human α3β4α5 nAChR [4] = target: T2, human α3β4α5 nAChR; settings: read-out: Binding affinity (Ki) at human α3β4α5 nAChR

Amino acid sequences for entries named in this document (tags omitted). Residues count along the entry.
UniProt P04757, 26-499: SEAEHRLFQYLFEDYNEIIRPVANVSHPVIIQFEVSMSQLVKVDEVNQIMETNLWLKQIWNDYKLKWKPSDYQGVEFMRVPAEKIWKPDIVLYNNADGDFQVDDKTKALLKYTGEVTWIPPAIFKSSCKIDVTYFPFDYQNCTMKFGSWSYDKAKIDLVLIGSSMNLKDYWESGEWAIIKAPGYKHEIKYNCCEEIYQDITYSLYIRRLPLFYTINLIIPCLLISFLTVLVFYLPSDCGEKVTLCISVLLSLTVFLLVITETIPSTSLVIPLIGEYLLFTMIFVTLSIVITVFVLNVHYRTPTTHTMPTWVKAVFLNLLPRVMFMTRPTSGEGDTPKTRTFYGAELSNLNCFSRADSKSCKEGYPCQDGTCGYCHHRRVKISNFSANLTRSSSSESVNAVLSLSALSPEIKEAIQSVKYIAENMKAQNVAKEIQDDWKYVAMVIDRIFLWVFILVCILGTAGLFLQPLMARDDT
UniProt P12392, 21-495: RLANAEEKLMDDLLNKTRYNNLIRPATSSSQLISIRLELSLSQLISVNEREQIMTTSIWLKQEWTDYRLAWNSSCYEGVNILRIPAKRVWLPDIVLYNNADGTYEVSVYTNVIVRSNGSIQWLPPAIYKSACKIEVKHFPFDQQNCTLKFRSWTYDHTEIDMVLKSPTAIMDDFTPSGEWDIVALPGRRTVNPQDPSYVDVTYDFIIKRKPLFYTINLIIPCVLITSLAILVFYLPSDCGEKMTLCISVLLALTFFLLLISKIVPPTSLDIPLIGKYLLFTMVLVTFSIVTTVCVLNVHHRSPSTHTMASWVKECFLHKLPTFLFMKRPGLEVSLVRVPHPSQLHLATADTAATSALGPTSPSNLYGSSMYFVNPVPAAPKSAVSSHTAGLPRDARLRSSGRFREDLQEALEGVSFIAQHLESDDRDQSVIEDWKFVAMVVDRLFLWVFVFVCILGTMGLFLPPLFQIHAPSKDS
UniProt P30926, 22-498: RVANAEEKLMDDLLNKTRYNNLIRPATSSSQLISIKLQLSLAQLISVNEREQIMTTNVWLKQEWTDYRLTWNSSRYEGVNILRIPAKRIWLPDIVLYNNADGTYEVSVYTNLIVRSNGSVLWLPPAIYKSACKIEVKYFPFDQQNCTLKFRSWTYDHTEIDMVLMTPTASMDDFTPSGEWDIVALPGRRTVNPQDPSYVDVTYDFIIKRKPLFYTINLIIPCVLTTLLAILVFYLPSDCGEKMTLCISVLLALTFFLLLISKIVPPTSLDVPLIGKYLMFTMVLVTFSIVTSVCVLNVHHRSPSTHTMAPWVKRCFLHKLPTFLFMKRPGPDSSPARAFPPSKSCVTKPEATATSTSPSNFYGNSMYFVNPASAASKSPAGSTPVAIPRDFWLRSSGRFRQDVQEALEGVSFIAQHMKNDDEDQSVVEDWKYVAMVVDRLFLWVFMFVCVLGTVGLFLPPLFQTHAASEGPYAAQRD
UniProt P32297, 32-505: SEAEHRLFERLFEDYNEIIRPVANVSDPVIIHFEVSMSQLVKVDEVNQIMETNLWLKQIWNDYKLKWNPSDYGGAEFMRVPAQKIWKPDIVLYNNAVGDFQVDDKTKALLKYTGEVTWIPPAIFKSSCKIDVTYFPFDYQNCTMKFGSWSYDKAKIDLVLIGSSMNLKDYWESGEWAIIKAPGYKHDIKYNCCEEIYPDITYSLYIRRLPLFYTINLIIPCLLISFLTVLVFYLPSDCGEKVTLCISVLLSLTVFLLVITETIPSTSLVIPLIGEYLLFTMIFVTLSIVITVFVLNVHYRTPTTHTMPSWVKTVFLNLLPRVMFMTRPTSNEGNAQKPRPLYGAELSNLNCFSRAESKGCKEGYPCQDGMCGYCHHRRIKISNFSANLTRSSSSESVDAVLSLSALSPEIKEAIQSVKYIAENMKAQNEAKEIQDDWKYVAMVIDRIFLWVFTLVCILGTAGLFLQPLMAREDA

| Ki (rat α3β4 nAChR [1]) [nM] | Ki (rat α3β4 nAChR [2]) [nM] | Structure (SMILES) | Ki (human α3β4α5 nAChR [3]) [nM] | Ki (human α3β4α5 nAChR [4]) [nM] |
| --- | --- | --- | --- | --- |
| > 10000 | > 10000 | CNC1(C)C2CCC(C2)C1(C)C (stereo not shown) [Mecamylamine] | – | – |
| – | – | CN1C2CCCC1CC(Nc1ccccc1Br)C2 (stereo not shown) [AT-1001] | 1.75 ± 0.14 | 3.34 ± 0.03 |
